In US6936584B1, “Mixed amylin activity compounds” (Amylin Pharmaceuticals, Inc., priority 1998, dated 2005):

Test system: gastric emptying in rats
Assay: Phenol red gastric emptying assay in conscious rats
Details: conscious rat model; adrenomedullin at highest doses (100 μg)

CGRP: calcitonin gene related peptide
inhibition of gastric emptying: dose-dependently inhibit gastric emptying
